molecular target: Recombinant human 17β-HSD13 (Homo sapiens (Human), UniProt Q7Z5P4); test: 17β-HSD13 rapid-fire mass spectrometry assay (RF/MS assay); conditions: HSD17B13 80 nM, LTB4 10 μM, NAD+ 0.5 mM, RT 3 h, RF/MS readout

Chains of the proteins cited; added tags and fusions are not shown. Residues count along the entry.
UniProt Q7Z5P4, 20-300 limits assumed: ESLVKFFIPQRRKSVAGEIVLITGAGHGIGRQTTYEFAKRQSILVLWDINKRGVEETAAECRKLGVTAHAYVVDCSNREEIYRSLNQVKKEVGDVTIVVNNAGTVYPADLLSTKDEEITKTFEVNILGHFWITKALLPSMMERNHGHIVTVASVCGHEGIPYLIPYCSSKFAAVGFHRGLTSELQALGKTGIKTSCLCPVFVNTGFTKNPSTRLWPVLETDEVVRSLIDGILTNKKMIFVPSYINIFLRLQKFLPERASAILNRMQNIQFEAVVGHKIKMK

Row | IC50 | Compound
1 | < 100 nM | COc1ccc(-c2nc3sc4c(O)cccc4c3c(=O)n2Cc2cccnc2)c(C2CC2)c1
2 | 100 to 1000 nM | O=c1c2c(nc(CCCN3CCOCC3)n1Cc1cncs1)sc1c(O)cccc12
3 | 100 to 1000 nM | O=c1c2c(nc(-c3ccc(F)cc3C3CC3)n1CCn1cccn1)sc1c(O)cccc12

Row | Compound | IC50
4 | COc1ccc(-c2nc3sc4c(OC(=O)CC[C@@H](C)[C@H]5CC[C@H]6[C@@H]7[C@H](O)C[C@@H]8C[C@H](O)CC[C@]8(C)[C@H]7C[C@H](O)[C@]56C)cccc4c3c(=O)n2Cc2cnco2)c(C2CC2)c1 | 100 to 1000 nM
5 | COc1ccc(-c2nc3sc4c(O)cccc4c3c(=O)n2CCOC(=O)N(C)C)c(C2CC2)c1 | < 100 nM

— patent US20230416268A1, “PYRIMIDINONE-CONTAINING 17-BETA-HYDROXYSTEROID DEHYDROGENASE TYPE 13 INHIBITORS” (ENANTA PHARMACEUTICALS, INC., priority 2022, published 2023)
